Five molecules from ChEMBL document CHEMBL1144964, “Inhibition of mandelate racemase by alpha-fluorobenzylphosphonates” (Bioorg Med Chem Lett, 2003) can be followed below.

Where “and” joins values, the source holds several entries; their conditions need not be identical. Equal entries are not always repeated.

This series is described as follows: pKa2 (Dissociation constant) value (phosphonate group) was determined. In kind it is physicochemical.
Turning to `O=P(O)(O)C(F)c1ccccc1` (racemic), the pKa2 was 6.5 and 6.6.

Molecule `O=P(O)(O)C(F)(F)c1ccccc1` yielded a pKa2 of 5.71.

With `O=P(O)(O)Cc1ccccc1` [BENZYLPHOSPHONIC ACID], the pKa2 was 7.6 and 7.72.

`O=P(O)(O)[C@@H](F)c1ccccc1`: the pKa2 was 6.5 and 6.6.

Take `O=P(O)(O)[C@H](F)c1ccccc1`: the pKa2 was 6.5 and 6.6.
